Results published in US7598377B2, “Inhibition of phosphoinositide 3-kinase β” (AstraZeneca AB, priority 2002, dated 2009).

The chains behind the UniProt entries cited, without tags or fusion partners. Where a name states a change or a piece, a line headed by the entry shows the natural chain unless it says otherwise.
UniProt P42338: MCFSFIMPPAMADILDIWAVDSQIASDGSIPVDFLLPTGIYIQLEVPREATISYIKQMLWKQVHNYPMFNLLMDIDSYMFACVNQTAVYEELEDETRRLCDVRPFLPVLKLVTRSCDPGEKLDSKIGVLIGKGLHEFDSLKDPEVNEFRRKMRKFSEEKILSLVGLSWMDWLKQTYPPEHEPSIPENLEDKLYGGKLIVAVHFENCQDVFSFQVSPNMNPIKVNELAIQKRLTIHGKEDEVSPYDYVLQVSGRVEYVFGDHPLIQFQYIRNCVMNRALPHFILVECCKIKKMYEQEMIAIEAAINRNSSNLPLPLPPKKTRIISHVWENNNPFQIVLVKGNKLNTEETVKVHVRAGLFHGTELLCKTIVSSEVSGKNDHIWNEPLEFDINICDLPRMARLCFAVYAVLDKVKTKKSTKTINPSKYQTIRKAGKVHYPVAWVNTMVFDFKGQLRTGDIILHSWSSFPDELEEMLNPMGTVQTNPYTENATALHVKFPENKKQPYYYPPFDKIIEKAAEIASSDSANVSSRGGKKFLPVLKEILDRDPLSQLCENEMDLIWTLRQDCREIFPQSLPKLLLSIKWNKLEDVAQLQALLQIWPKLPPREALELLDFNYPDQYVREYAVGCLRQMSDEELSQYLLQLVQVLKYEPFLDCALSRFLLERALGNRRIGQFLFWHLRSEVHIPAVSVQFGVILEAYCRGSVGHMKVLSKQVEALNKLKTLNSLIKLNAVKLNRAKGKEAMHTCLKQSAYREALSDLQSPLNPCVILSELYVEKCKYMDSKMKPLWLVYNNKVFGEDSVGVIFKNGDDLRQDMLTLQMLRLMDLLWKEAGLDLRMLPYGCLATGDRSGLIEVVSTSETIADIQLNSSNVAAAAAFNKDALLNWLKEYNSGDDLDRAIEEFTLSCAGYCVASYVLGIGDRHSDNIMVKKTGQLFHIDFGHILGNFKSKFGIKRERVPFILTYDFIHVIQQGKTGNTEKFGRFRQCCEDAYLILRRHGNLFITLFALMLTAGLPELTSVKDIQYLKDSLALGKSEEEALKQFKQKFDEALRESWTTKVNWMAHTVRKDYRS

Biological target: T1, p110β-PI3K (Homo sapiens, UniProt P42338)
T1 construct: The α and β isoforms of the PI3K were immunoprecipitated from a platelet lysate; from tissue; host or cells: washed platelets (lysate, immunoprecipitated with anti-p110β antibody)
Test: In vitro enzyme assay, p110β immunoprecipitated from platelet lysate (Biological Example 1)
Format: biochemical
Conditions: read-out: IC50 against PI 3-kinase β
Method: To examine the inhibitory activity of TGX-221 against PI 3-kinase α, β or δ isoforms, or PI4 kinase, washed platelets were lysed with 1× lysis buffer (10 mM Tris, pH 7.6, 10 mM PMSF, 5 mM EDTA, 2 mM benzamidine, 0.1% Triton X-100) and whole cell lysates were clarified by centrifugation at 15,000×g for 5 minutes. For each immunoprecipitation, 1 mg of lysate was incubated with an anti-p110α (1 μg), anti-p110β (1 μg), anti-p110δ (1 μg) or anti-PI4 kinase antibody (2-5 μg) and 50 μl of a 50% slurry of protein A beads overnight at 4° C. For PI 3-kinase assays, the protein A beads-immune complexes were washed twice with lysis buffer and twice more with 1× PI 3-kinase assay buffer (20 mM Hepes, pH 7.2, 5 mM MgCl2, 0.25 mM EDTA) prior to incubating 25 μl of the immunoprecipitated p110 α or β isoforms with 40 μl of the PI 3-kinase substrate, phosphatidylinositol (PtdIns), 10 μl ATP mix (0.5 μl γ^32 P-ATP+0.5 μl 10 nM ATP), 10 μl 10× kinase buffer, 15 μl milliQ H2O and 1 μl of TGX-221 (0-10 μM) for 60 minutes at room temperature. […] The lipid spots were then removed from the TLC plate and the level of radioactivity quantified to accurately determine the level of PtdIns(3)P/PtdIns(4)P production.

With `Cc1cc(C(C)Nc2ccccc2)c2nc(N3CCOCC3)cc(=O)n2c1` (racemic) [TGX-221, (±)-7-methyl-2-morpholin-4-yl-9-(1-phenylaminoethyl)-pyrido[1,2-a]pyrimidin-4-one] the IC50 was 5 nM.
